# Results reported in patent US12062444B2, “Methods and compositions related to triple-negative breast cancer” (THE UNIVERSITY OF CHICAGO, priority 2017, dated 2024).
# Legend:
# [1] = test system: GR chromatin association in MDA-MB-231 cells; test: GR ChIP-sequencing and analysis; format: cell-based, human; conditions: co-treatment with Dex
# Experimental: MDA-MB-231 cells were grown to 80% confluence in 15-cm dishes in DMEM with 10% FBS, followed by 48h in DMEM supplemented with 2.5% charcoal-stripped FBS. […] Cells were cross-linked with 1% formaldehyde, quenched with glycine (final concentration of […]), and harvested. After cell lysis with ChIP lysis buffer (Magna ChIP A Chromatin Immunoprecipitation Kit, EMD Millipore), cells were sonicated to achieve the majority of DNA fragments between 200-400 bp. Input samples were preserved at -80° C. […] Following manufacturer's protocol, chromatin was eluted from GR ChIP and input samples. Library build and sequencing was performed at the University of Oregon Genomics Core facility using the NextSeq 500 sequencer. Quality control on sequences and adapter sequencing trimming was performed using Kapa Biosystems Illumina Library Quantification Kit. ChIP-seq analysis was carried out using the Galaxy platform (usegalaxy.org (111)). […] GR peaks for each treatment were normalized to its own input control sample. […] Selected GR peak locations in hg19 and GR peak maps were also individually analyzed using Integrative Genomics Viewer, IGV (Broad Institute (116)).
# [2] = test system: GR-regulated gene expression in MDA-MB-231 cells; test: Gene expression microarray and analysis; format: cell-based, human; conditions: n=462 genes; cell survival, invasion, EMT pathways; FIG. 13
# Experimental: MDA-MB-231 cells were grown to 80% confluence in 15-cm dishes in DMEM with 10% FBS. […] Following compound exposure, cells were washed in PBS, and lysed in RNA lysis buffer (Qiagen) overnight at -80° C. RNA extraction, with accompanying DNase treatment, was performed using the RNeasy kit (Qiagen) following the manufacturer's protocol. […] The University of Chicago Genomics Core facility carried out the reverse transcription on the samples, followed by microarray using the Affymetrix Human U133 Plus 2.0 platform. […] A principal components analysis (PCA) was performed using the prcomp function in R (Q-mode PCA using singular value decomposition). […] Dex-regulated genes were overlapped with a list of n=5,170 differentially-expressed tumor-derived genes (in the same direction) from GR-high versus GR-low BCs (52). Ingenuity Pathway Analysis (Qiagen) of the n=462 patient-relevant and antagonist-inhibited genes was performed to obtain Activation Z-scores of the most significant Diseases and Biofunctions (cell functions).
smiles,measurement,setting,value
CCOC[C@]12Cc3cnn(-c4ccc(F)cc4)c3C=C1CCN(S(=O)(=O)c1ccc(C(F)(F)F)cc1)C2 [C297],Relative GR promoter enrichment (+/−3kb),[1],decrease in relative GR promoter enrichment
same,Pathway activation Z-score (Ingenuity Pathway Analysis) relative to Dex,[2],relative dampening of Z-score magnitude
